AlphaSeq binding of Ab-95 light chain variants to a spike HR2 peptide

Antigen: PDVDLGDISGINAS, a 14-residue peptide of the SARS-CoV-2 spike HR2 region.

Parent scFv Ab-95: VH joined to VL by a 15-residue (Gly4Ser)3 linker. Changes lie in the light chain CDRs alone.
VH: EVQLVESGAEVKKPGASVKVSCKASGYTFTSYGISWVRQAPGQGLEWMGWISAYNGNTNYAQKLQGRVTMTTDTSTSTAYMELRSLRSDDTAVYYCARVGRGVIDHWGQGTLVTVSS
VL: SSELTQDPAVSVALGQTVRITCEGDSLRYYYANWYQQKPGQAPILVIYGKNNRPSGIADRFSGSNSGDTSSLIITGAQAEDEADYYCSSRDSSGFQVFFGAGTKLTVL

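AAYL52 was designed without a model: most single CDR substitutions and a random sample of double and triple ones. In AlphaSeq, yeast of one mating type display the scFv and yeast of the other type display the target. Binding brings cells together so that they mate, and sequencing counts the barcode pairs among the diploids. Scores were corrected for input abundance and mapped to Kd with protein pairs of known affinity run in the same pool. Each pool was mated in three replicate cultures.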

Substitutions are numbered in sequence along the VL above, starting at 1 (not Kabat). This list gathers variants with a substitution at F95 (VL, numbered from residue 1). The read-out is the apparent dissociation constant on a log10 scale (nM): the lower, the stronger. Where no diploid with the target was found in that replicate, the entry reads "ND": below detection, most likely a poor binder, though not proof of it. Three control strains display no target. For library AAYL52, 28% of the pairings with them gave a signal, with a median of 3.91 and one signal in twenty below 2.90, so weak values seen in few replicates may be background. For reference, the parent read 2.31 as the reference entry and 2.25 as a member of this library.

changes	log10 Kd (nM) by replicate
P54V S55T F95A	2.14 / 2.48 / 2.13
Y30A R53V F95Q	1.90 / 1.93 / 1.55
Y30F K50S F95K	3.72 / 4.11 / ND
F95H	3.75 / 2.40 / 2.74
P54D F95I	3.55 / 3.66 / ND
P54F D91F F95S	ND / 4.01 / ND
R28Q S92W F95W	ND / ND / 4.06
D25A A32D F95V	5.48 / 3.25 / ND
N33I F95M F98D	ND / ND / ND
N33T G49F F95V	3.86 / ND / ND
E23W G24K F95T	3.79 / 4.49 / ND
E23G N33C F95K	4.42 / 3.73 / ND
S88C S93I F95V	4.82 / 4.15 / 3.76
G49S R90E F95M	2.69 / ND / ND
S92E F95L	2.63 / 2.43 / 2.73
R53N S89T F95M	2.21 / 2.23 / 2.21
P54Q S88F F95T	4.28 / 4.13 / ND
R53Q R90E F95D	ND / 4.75 / ND
S26M F95V	2.85 / 3.01 / ND
Y30Q S92H F95H	2.12 / 1.77 / 1.40
Y31N S89A F95M	1.15 / 0.98 / 0.56
L27D N51L F95I	4.84 / 5.21 / ND
R28G F95T F98Y	2.27 / 2.11 / 2.09
S92H F95I Q96S	ND / ND / ND
L27I F95Y	3.14 / 2.53 / 2.39
E23W S26M F95G	5.41 / ND / ND
R53E S93D F95R	3.10 / 3.30 / ND
Y30A A32L F95C	2.66 / 3.22 / 3.21
N51K S55M F95V	ND / 4.64 / ND
Y30S P54H F95V	2.29 / 2.00 / 1.65
K50T R53M F95S	4.34 / 4.39 / ND
S88F F95G F98P	5.09 / ND / 3.30
P54H F95L F98W	3.70 / ND / ND
S26Q R53Q F95V	3.91 / 3.78 / 4.16
Y30A D91Q F95I	2.21 / 1.82 / 1.51
E23V N33A F95V	4.22 / 5.31 / 4.91
S88D F95H Q96G	3.78 / 4.49 / ND
L27T G49I F95Q	ND / 5.56 / ND
L27G N52C F95M	3.16 / 2.86 / 3.44
S88K F95Y	2.09 / 2.68 / 1.62
E23L Y30D F95Q	2.21 / 2.12 / 1.97
E23A G49T F95C	3.13 / ND / ND
G94C F95Q Q96K	3.11 / 3.56 / ND
P54K G94Q F95N	ND / 2.82 / 3.13
G49R N52E F95K	ND / ND / ND
D25P R28D F95N	2.94 / 2.69 / 2.34
E23N F95S F98R	2.86 / 3.10 / 3.67
E23C N33T F95G	3.94 / 4.92 / ND
D91T F95W	3.13 / 2.96 / 2.74
S26V L27R F95A	3.08 / 2.77 / 4.76
Y31S A32W F95Q	4.20 / 4.06 / 3.13
Y29V K50P F95E	4.11 / 4.05 / 4.52

5 of these entries, quoted again:

{"changes": "R28G F95T F98Y", "log10 Kd (nM) by replicate": "2.27 / 2.11 / 2.09"}
{"changes": "K50T R53M F95S", "log10 Kd (nM) by replicate": "4.34 / 4.39 / ND"}
{"changes": "Y31N S89A F95M", "log10 Kd (nM) by replicate": "1.15 / 0.98 / 0.56"}
{"changes": "P54V S55T F95A", "log10 Kd (nM) by replicate": "2.14 / 2.48 / 2.13"}
{"changes": "G94C F95Q Q96K", "log10 Kd (nM) by replicate": "3.11 / 3.56 / ND"}

The measurements come from Engelhart et al. 2022 (doi:10.1038/s41597-022-01779-4) through the FLAb antibody collection.